Measured values taken from patent US20090006059A1.

Amino acid sequences for entries named in this document (tags omitted). A change or cut given only in a name is not applied to a line headed by its entry. Residues count along the entry.
UniProt Q16539, 2-360 limits assumed: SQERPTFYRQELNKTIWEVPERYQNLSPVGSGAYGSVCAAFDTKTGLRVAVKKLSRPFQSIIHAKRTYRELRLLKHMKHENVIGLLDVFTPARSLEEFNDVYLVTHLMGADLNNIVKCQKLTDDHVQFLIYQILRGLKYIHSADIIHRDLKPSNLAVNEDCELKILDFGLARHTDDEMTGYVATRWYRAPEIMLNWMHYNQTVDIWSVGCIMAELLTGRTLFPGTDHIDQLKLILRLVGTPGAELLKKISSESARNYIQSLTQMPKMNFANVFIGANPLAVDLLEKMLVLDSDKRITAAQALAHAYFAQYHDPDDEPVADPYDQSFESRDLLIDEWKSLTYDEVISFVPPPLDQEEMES
UniProt P45984, whole entry: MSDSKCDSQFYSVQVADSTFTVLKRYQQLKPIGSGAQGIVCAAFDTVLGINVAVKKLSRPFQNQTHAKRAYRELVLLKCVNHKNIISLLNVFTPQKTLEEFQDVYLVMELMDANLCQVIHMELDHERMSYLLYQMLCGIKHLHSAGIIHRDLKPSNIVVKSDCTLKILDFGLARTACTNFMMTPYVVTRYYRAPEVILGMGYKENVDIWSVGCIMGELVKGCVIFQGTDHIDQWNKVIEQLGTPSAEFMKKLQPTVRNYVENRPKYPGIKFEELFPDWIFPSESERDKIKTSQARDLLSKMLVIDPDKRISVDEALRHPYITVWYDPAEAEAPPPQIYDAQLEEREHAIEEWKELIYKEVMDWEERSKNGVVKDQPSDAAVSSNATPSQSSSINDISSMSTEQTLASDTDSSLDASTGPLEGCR

Experiments:
P38A = P38A (Homo sapiens, UniProt Q16539); assay: IC50 of inhibitor for P38A kinase; conditions: read-out: IC50 for P38A
JNK2 = JNK2 (Homo sapiens, UniProt P45984); assay: IC50 of inhibitor for JNK2 kinase; conditions: read-out: IC50 for JNK2

IC50 (P38A): 6 nM
IC50 (JNK2): > 20 µM
SMILES: CS(=O)(=O)c1ccc(Cl)c(-c2n[nH]c3nc(Oc4ccc(F)cc4F)ncc23)c1
